Yeast mating assay 1: variants of the scFv Ab-14

Target: peptide PDVDLGDISGINAS, taken from heptad repeat 2 (HR2) of SARS-CoV-2 spike.

Parent: Ab-14, a human scFv built as VH, a (GGGGS)3 linker, VL. Only the CDRs of the heavy chain vary.
VH: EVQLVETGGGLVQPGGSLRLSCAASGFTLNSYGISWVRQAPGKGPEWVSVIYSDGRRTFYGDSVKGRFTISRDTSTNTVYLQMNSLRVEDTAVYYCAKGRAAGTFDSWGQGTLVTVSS
VL: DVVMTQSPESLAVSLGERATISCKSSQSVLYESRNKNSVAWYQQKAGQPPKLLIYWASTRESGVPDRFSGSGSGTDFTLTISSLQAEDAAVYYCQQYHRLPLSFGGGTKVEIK

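The parent was found by panning a naive human phage display library on the peptide. In library AAYL49, one, two or three CDR residues were substituted; doubles and triples were drawn at random. AlphaSeq pools MATa yeast showing the antibodies with MATalpha yeast showing the peptide. Mating (16 h, 30 °C) was followed by selection of diploids and sequencing of their barcodes. Each replicate has its own calibration line, from reference interactions of the BCL2 family. Each pool was mated in three replicate cultures.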

Positions count from residue 1 of the parent VH; I51F puts F in place of I. The read-out is the apparent dissociation constant on a log10 scale (nM): the lower, the stronger. A pair that was not seen in that replicate is written "ND"; this usually means weak binding, but a binder can also be missed.

With I51F the result was 3.93, ND, ND (controls 0 of 9).
With R56I/V64L/S107K the result was ND, ND, ND (controls 0 of 9).
With I34H/R57T/D62N the result was ND, ND, ND (controls 0 of 9).
With N30E/R57A/D62S the result was 3.50, ND, 4.68 (controls 0 of 9).
With G26H/G33C/Y60Q the result was ND, ND, ND (controls 0 of 9).
With F59M/A101D/F105D the result was 1.46, 1.85, 1.89 (controls 0 of 9).
With G26K/S53L/G55H the result was 4.27, 4.14, ND (controls 1 of 9).
With I34L/G61C/F105C the result was ND, 4.60, ND (controls 0 of 9).
With I51H/V64R/K65Q the result was ND, 4.02, ND (controls 3 of 9).
With F27P/T28N/A101S the result was 2.52, 2.24, 2.89 (controls 2 of 9).
With Y52C/R56V/G61R the result was ND, ND, ND (controls 0 of 9).
With S35L/Y52N/S53R the result was ND, 3.75, 4.59 (controls 2 of 9).
With S63K/T104F the result was 0.68, 1.11, 0.89 (controls 0 of 9).
With V50D/I51A/R56D the result was ND, ND, 5.70 (controls 3 of 9).
With V50K/T58W/A102L the result was ND, ND, ND (controls 1 of 9).
With T28N/S31K/T58C the result was 1.21, 1.25, 1.26 (controls 1 of 9).
With T28F/I34Y/A101Y the result was ND, ND, ND (controls 0 of 9).
With T28Y/G99S the result was ND, ND, ND (controls 0 of 9).
With N30C/D62P/V64W the result was ND, ND, ND (controls 0 of 9).
With S31P/R57M/F59A the result was 4.37, 4.04, 4.73 (controls 3 of 9).
With F27L/K65R/A101W the result was 5.11, 2.93, ND (controls 1 of 9).
With S31T/R56C/R57H the result was 2.24, 2.18, 2.67 (controls 2 of 9).
With G103K/D106N the result was 4.58, 3.71, 5.31 (controls 2 of 9).
With F27T/G99R/A101M the result was ND, ND, ND (controls 1 of 9).
With N30C/G33Q/S63K the result was 3.86, 4.45, 4.32 (controls 4 of 9).
With R57T/T58G/S107Q the result was ND, ND, ND (controls 0 of 9).
With F27P/N30E/Y52D the result was 3.76, 3.68, 5.59 (controls 2 of 9).
With N30E/S63N the result was 1.04, 1.10, 0.92 (controls 0 of 9).
With F27V/Y32Q/F59N the result was 3.07, 2.70, 3.37 (controls 1 of 9).
With Y52R/F59G/S107M the result was ND, ND, ND (controls 1 of 9).
With F105S the result was ND, 5.33, ND (controls 2 of 9).
With Y60V/V64N/K65N the result was ND, ND, ND (controls 1 of 9).
With Y52G/R56V/F105Y the result was ND, ND, ND (controls 2 of 9).
With G55D/V64E/A101G the result was ND, ND, ND (controls 4 of 9).
With F27P/D62L/A102W the result was ND, ND, ND (controls 0 of 9).
With S53C/R57Q/G103P the result was ND, 4.04, ND (controls 1 of 9).
With F27N/T58K/A102S the result was ND, ND, 5.38 (controls 0 of 9).

The first 3 entries again:

I51F: 3.93, ND, ND (controls 0 of 9).
R56I/V64L/S107K: ND, ND, ND (controls 0 of 9).
I34H/R57T/D62N: ND, ND, ND (controls 0 of 9).

Parent in this assay: reference entry 0.65, copy in this library 4.11 (one replicate of three). Background: pairings of library AAYL49 with three empty control strains gave a value in 15% of cases (median 4.06, 5th percentile 2.83). Values in that range, when seen in few replicates, are hard to tell from nonspecific mating. For each scFv, signals with the empty controls are counted beside the result.

Data: MIT Lincoln Laboratory AlphaSeq set, Engelhart et al. 2022, doi:10.1038/s41597-022-01779-4, as distributed in FLAb.